Assay results published in US9790229B2, “Bruton's tyrosine kinase inhibitors” (priority 2009, dated 2017).
Like-named read-outs stand apart in the source and are kept apart here.

Amino acid sequences for entries named in this document (tags omitted). A change or cut given only in a name is not applied to a line headed by its entry.
UniProt Q06187: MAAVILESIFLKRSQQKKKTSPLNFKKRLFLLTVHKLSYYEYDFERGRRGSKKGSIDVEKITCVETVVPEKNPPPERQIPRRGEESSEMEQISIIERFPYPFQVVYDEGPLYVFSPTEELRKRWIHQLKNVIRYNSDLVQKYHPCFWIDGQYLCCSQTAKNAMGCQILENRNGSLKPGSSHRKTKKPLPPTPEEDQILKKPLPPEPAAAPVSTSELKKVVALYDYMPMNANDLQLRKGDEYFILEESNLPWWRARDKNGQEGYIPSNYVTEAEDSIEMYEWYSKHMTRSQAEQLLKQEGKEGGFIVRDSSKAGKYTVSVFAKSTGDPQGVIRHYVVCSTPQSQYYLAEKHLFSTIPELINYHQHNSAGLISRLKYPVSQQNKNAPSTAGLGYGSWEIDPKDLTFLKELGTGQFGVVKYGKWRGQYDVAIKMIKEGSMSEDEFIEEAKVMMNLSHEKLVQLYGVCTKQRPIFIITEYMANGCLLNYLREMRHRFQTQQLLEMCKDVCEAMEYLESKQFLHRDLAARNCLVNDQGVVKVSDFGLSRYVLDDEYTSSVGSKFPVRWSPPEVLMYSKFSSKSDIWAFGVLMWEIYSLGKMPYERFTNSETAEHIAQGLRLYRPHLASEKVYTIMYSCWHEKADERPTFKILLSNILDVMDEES

Target: BTK (Homo sapiens (Human), UniProt Q06187)
Assay: In vitro BTK kinase assay: BTK-POLYGAT-LS ASSAY
[1] = read-out: IC50 (10 uM ATP), 10 uM ATP, in vitro Btk kinase assay, Example 41

Compound | IC50 [µM] | IC50 [1] [µM]
O=C(Nc1cccc(C2CCCN(c3ncnc4[nH]ccc34)C2)c1)Nc1ccccc1O (stereo not shown) [Cmpd 56, 1-(3-(1-(7H-pyrrolo[2,3-d]pyrimidin-4-yl)piperidin-3-yl)phenyl)-3-(2-hydroxyphenyl)urea] | 0.1 to 0.999 | –
O=C1[C@H](Nc2cc(Cl)cc(Cl)c2)CCN1[C@H]1CN(c2ncnc3[nH]ncc23)CC[C@@H]1C(F)(F)F [compound 355] | – | < 0.1
Nc1ncnc(N2CC[C@H](C(F)(F)F)[C@@H](N3CCCC(Nc4cc(F)cc(Cl)c4)C3=O)C2)c1F (stereo partly drawn) [compound 329, trans 1′-(6-Amino-5-fluoropyrimidin-4-yl)-3-(3-chloro-5-fluorophenylamino)-4′-(trifluoromethyl)-1,3′-bipiperidin-2-one] | – | < 0.1
O=C(Nc1cccc([C@@H]2CCCN(c3ncnc4[nH]ccc34)C2)c1)Nc1c(Cl)cccc1Cl [compound 207] | 1 to 10 | –
Nc1ncnc(N2CC[C@H](C(F)(F)F)[C@@H](N3CCC[C@H](Nc4cc(F)cc(Cl)c4)C3=O)C2)c1F [compound 333, trans (3S)-1′-(6-amino-5-fluoropyrimidin-4-yl)-3-(3-chloro-5-fluorophenylamino)-4′-(trifluoromethyl)-1,3′-bipiperidin-2-one] | 1 to 10 | –
Nc1ncnc(N2CC[C@@H](C(F)(F)F)[C@H](N3CCC[C@@H](Nc4cc(F)cc(Cl)c4)C3=O)C2)c1F [compound 330, trans (3R)-1′-(6-Amino-5-fluoropyrimidin-4-yl)-3-(3-chloro-5-fluorophenylamino)-4′-(trifluoromethyl)-1,3′-bipiperidin-2-one] | 0.1 to 0.999 | –
CC(=O)Nc1ccccc1NC(=O)Nc1cccc(C2CCCN(c3ncnc4[nH]ccc34)C2)c1 (stereo not shown) [Cmpd 55, N-(2-(3-(3-(1-(7H-pyrrolo[2,3-d]pyrimidin-4-yl)piperidin-3-yl)phenyl)ureido)phenyl)acetamide] | 1 to 10 | –
Cc1cc(NC(=O)Nc2cccc(C3CCCN(c4ncnc5[nH]ccc45)C3)c2)n(C(C)(C)C)n1 (stereo not shown) [Cmpd 36, 1-(3-(1-(7H-pyrrolo[2,3-d]pyrimidin-4-yl)piperidin-3-yl)phenyl)-3-(1-tert-butyl-3-methyl-1H-pyrazol-5-yl)urea] | 1 to 10 | –
O=C(Nc1cccc([C@H]2CCCN(c3ncnc4[nH]ccc34)C2)c1)Nc1c(Cl)cccc1Cl [compound 153] | – | < 0.1
O=C(Nc1cccc(C2CCCN(c3ncnc4[nH]ccc34)C2)c1)N[C@H]1CCc2ccccc21 (stereo partly drawn) [Cmpd 41, 1-(3-(1-(7H-pyrrolo[2,3-d]pyrimidin-4-yl)piperidin-3-yl)phenyl)-3-((S)-2,3-dihydro-1H-inden-1-yl)urea] | 1 to 10 | –
O=C(Nc1cccc(C2CCCN(c3ncnc4[nH]ccc34)C2)c1)N[C@H]1CCCc2ccccc21 (stereo partly drawn) [Cmpd 42, 1-(3-(1-(7H-pyrrolo[2,3-d]pyrimidin-4-yl)piperidin-3-yl)phenyl)-3-((S)-1,2,3,4-tetrahydronaphthalen-1-yl)urea] | 1 to 10 | –
O=C1[C@@H](Nc2cc(Cl)cc(Cl)c2)CCN1[C@@H]1CN(c2ncnc3[nH]ncc23)CC[C@H]1C(F)(F)F [compound 356] | 0.1 to 0.999 | –
O=C(Nc1cccc(C2CCCN(c3ncnc4[nH]ccc34)C2)c1)Nc1cccc2c1OC(F)(F)O2 (stereo not shown) [Cmpd 39, 1-(3-(1-(7H-pyrrolo[2,3-d]pyrimidin-4-yl)piperidin-3-yl)phenyl)-3-(2,2-difluorobenzo[d][1,3]dioxol-4-yl)urea] | 1 to 10 | –
O=C(Nc1cccc(C2CCCN(c3ncnc4[nH]ccc34)C2)c1)NC1CCCCC1 (stereo not shown) [Cmpd 54, 1-(3-(1-(7H-pyrrolo[2,3-d]pyrimidin-4-yl)piperidin-3-yl)phenyl)-3-cyclohexylurea] | 1 to 10 | –
O=C(Nc1cccc(C2CCCN(c3ncnc4[nH]ccc34)C2)c1)N[C@@H]1CCc2ccccc21 (stereo partly drawn) [Cmpd 40, 1-(3-(1-(7H-pyrrolo[2,3-d]pyrimidin-4-yl)piperidin-3-yl)phenyl)-3-((R)-2,3-dihydro-1H-inden-1-yl)urea] | 0.1 to 0.999 | –
O=C(Nc1cccc(C2CCCN(c3ncnc4[nH]ccc34)C2)c1)Nc1cccc2[nH]ccc12 (stereo not shown) [Cmpd 45, 1-(3-(1-(7H-pyrrolo[2,3-d]pyrimidin-4-yl)piperidin-3-yl)phenyl)-3-(1H-indol-4-yl)urea] | 1 to 10 | –
Nc1ncnc(N2CC[C@@H](C(F)(F)F)[C@H](N3CCC[C@H](Nc4cc(F)cc(Cl)c4)C3=O)C2)c1F [compound 331, trans (3S)-1′-(6-Amino-5-fluoropyrimidin-4-yl)-3-(3-chloro-5-fluorophenylamino)-4′-(trifluoromethyl)-1,3′-bipiperidin-2-one] | – | > 10
O=C(Nc1cccc(C2CCCN(c3ncnc4[nH]ccc34)C2)c1)N[C@@H]1CCCc2ccccc21 (stereo partly shown) [compound 208] | 1 to 10 | –
O=C(Nc1cccc(C2CCCN(c3ncnc4[nH]ccc34)C2)c1)Nc1c(F)cccc1F (stereo not shown) [Cmpd 60, 1-(3-(1-(7H-pyrrolo[2,3-d]pyrimidin-4-yl)piperidin-3-yl)phenyl)-3-(2,6-difluorophenyl)urea] | 0.1 to 0.999 | –
Nc1ncnc(N2CCCC(c3nc(NC(=O)Nc4ccccc4N4CCCC4)cs3)C2)c1Cl (stereo not shown) [compound 108, 1-(2-(1-(6-amino-5-chloropyrimidin-4-yl)piperidin-3-yl)thiazol-4-yl)-3-(2-(pyrrolidin-1-yl)phenyl)urea] | 0.1 to 0.999 | –
O=C(Nc1cccc(C2CCCN(c3ncnc4[nH]ccc34)C2)c1)Nc1ccccc1Cl (stereo not shown) [Cmpd 25, 1-(3-(1-(7H-pyrrolo[2,3-d]pyrimidin-4-yl)piperidin-3-yl)phenyl)-3-(2-chlorophenyl)urea] | 1 to 10 | –
Nc1ncnc(N2CC[C@H](C(F)(F)F)[C@@H](N3CCC[C@@H](Nc4cc(F)cc(Cl)c4)C3=O)C2)c1F [compound 332, trans (3R)-1′-(6-Amino-5-fluoropyrimidin-4-yl)-3-(3-chloro-5-fluorophenylamino)-4′-(trifluoromethyl)-1,3′-bipiperidin-2-one] | – | < 0.1
Cc1cccc(C)c1NC(=O)Nc1cccc(C2CCCN(c3ncnc4[nH]ccc34)C2)c1 (stereo not shown) [compound 177] | 0.1 to 0.999 | –
COc1cccc(OC)c1NC(=O)Nc1cccc(C2CCCN(c3ncnc4[nH]ccc34)C2)c1 (stereo not shown) [Cmpd 61, 1-(3-(1-(7H-pyrrolo[2,3-d]pyrimidin-4-yl)piperidin-3-yl)phenyl)-3-(2,6-dimethoxyphenyl)urea] | 0.1 to 0.999 | –
O=C(Nc1cccc(C2CCCN(c3ncnc4[nH]ccc34)C2)c1)Nc1c(Cl)cccc1Cl (stereo not shown) [Cmpd 59, 1-(3-(1-(7H-pyrrolo[2,3-d]pyrimidin-4-yl)piperidin-3-yl)phenyl)-3-(2,6-dichlorophenyl)urea] | 0.1 to 0.999 | –
